The list shows a part of the results, in another mix than the full data. Some of these compounds have results that are not shown, active ones among them. The source made the active and inactive calls.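 How the source made its calls: active means cell count reduction more than 3 SD above the screen-wide mean (cut at about 70% in these data); inactive means the rest.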

The nature of the assay: cytotoxicity in IL-1B stimulated HUVEC, primary screen, cytotoxicity control for IL-1B NFkB translocation project, imaging, Hoechst nuclear count, IL-1B stimulus (AID 845).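 Further: normalized per plate to untreated control cells as the no-loss baseline.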 The following applies: HUVEC cell count loss, at 2 µM, active compounds read high.
`CC(C)N1C(=O)CC2(CCN(CCOC(=O)C(O)(c3ccccc3)c3ccccc3)CC2)C1=O`: the cell count reduction was inactive: -44.9%.
The result for `CN(C)c1cccc(C(=O)NCC2(N(C)C)CCCCC2)c1` reads inactive: -6.6%; that for `O=C(OC1CN2CCC1CC2)C(CO)(c1ccccc1)c1ccccc1` (stereo not drawn), inactive: 14.1%.

Source of the values: PubChem BioAssay AID845 (Columbia University Molecular Screening Center, 2007).
